Legend:
JAK2 = target: T1, JAK2 (Homo sapiens, UniProt O60674, I682F); assay: Immunoblot protein degradation in MHH-CALL-4 cells; type: cell-based
T1 construct: degradation of JAK2 and GSPT1 in MHH-CALL-4 cells; endogenous in cells; host or cells: MHH-CALL-4

The chains behind the UniProt entries cited, without tags or fusion partners.
UniProt O60674, whole entry I682F: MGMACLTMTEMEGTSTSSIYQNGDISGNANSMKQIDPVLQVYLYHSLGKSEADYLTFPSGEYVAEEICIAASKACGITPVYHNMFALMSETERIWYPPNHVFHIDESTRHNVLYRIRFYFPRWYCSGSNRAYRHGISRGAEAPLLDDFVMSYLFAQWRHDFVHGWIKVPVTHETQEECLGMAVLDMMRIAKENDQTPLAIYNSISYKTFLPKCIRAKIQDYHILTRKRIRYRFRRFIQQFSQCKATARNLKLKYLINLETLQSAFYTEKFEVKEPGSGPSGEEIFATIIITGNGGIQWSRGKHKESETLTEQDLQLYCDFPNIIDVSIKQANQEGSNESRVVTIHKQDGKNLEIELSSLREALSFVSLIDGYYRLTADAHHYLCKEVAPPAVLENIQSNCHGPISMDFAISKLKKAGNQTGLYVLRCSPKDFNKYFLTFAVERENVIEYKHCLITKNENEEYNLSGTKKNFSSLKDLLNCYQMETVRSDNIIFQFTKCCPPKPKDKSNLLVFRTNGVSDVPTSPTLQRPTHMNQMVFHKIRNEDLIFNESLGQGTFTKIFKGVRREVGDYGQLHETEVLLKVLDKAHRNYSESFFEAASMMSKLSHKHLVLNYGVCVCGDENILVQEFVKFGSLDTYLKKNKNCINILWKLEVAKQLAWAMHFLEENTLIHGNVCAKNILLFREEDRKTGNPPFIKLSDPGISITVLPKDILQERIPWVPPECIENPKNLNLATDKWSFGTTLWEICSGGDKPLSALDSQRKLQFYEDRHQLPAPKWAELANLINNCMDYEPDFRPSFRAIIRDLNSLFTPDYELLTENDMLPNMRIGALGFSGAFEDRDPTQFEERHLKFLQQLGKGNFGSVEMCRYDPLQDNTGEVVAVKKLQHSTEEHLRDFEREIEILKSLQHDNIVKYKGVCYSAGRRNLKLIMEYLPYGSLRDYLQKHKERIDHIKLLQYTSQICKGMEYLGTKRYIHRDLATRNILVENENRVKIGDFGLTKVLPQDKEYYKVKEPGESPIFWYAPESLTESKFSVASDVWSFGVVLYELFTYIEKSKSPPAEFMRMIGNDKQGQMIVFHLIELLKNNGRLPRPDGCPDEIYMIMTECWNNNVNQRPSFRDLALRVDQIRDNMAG

MHH-CALL-4 = assay: Cytotoxicity assay (resazurin, 72 hours); type: cell-based; details: Homo sapiens, MHHCALL4, read-out: HHCALL4 (nM), MHHCALL4 EC50
[1] = system: Human CD45+ leukemic cells purified from patient derived xenografts (PDX); assay: Ex vivo cytotoxicity (MTT)
[2] = system: JAK-STAT5 signaling pathway; assay: Phosphoflow analysis in MHH-CALL-4 cells with or without TSLP; type: cell-based, human; details: 1 μM, one hour before TSLP 25 ng/mL for 30 minutes
Description: Cells (7.5×105) were treated with compounds in 3 ml of IMDM containing 1% BSA for one hour followed by treatment with or without 25 ng/mL TSLP (R&D systems) for 30 minutes. Cells were fixed for 10 minutes at room temperature by adding 1 ml of 10% UltraPure Formaldehyde (Polysciences), centrifuged for 5 minutes at 450 g, resuspended in 95% methanol (Electron Microscopy Sciences) and store at −20° C. Cells were stained with phosphorylated (p)STAT5-Ax647(#612599, BD), pJAK2 Y1007/1008 (#3776, Cell Signaling Technologies), Anti-Rabbit-BV-421 (#406410, Biolegend), hCD45-BV605 (#564047, BD) and hCD19-PE (t #349209, BD). Mouse IgG2u-Ax647 (Cat #558053, BD) was used as isotype control. Cells were analyzed on BD Biosciences LSR/Fortessa (BD Biosciences, Franklin Lakes, NJ) with BD FACSDiva 7.0 software followed by FlowJo v10 (Tree Star, Inc., Ashland, OR).

Compound | extent of degradation of JAK2 (JAK2) | EC50 (MHH-CALL-4) [nM] | cytotoxicity in PDX cells ex vivo [1] | JAK inhibition (phosphoflow) [2]
CCS(=O)(=O)N1CC(CC#N)(n2cc(-c3nc(Nc4ccc(C(=O)NCCN5CCN(c6ccc7c(c6)C(=O)N(C6CCC(=O)NC6=O)C7=O)CC5)cc4)nc4[nH]ccc34)cn2)C1 (stereo not shown) [Compound 8] | preferential | 3200 | – | –
N#CC[C@H](C1CCCC1)n1cc(-c2ncnc3[nH]ccc23)cn1 [Ruxolitinib, reference compound] | – | – | not | comparable JAK inhibition
